We go through one compound from PMC3685407 (Neuropharmacology, 2013).

The chains behind the UniProt entries cited, without tags or fusion partners. Residues count along the entry.
UniProt P36544, 23-502: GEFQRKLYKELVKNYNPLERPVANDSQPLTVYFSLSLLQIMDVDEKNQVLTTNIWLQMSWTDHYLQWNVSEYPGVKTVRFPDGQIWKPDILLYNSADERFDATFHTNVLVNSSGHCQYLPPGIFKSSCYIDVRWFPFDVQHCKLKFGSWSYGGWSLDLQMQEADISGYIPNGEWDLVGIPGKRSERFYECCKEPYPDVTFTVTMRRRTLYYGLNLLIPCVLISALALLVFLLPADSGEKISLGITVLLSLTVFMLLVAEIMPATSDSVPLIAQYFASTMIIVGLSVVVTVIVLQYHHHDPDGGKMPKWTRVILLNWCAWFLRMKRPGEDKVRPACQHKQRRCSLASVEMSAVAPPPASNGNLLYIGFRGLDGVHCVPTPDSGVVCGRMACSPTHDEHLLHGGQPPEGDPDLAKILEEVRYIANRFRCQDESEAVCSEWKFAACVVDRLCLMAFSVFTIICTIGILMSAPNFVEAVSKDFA

This test has as its target human α7 nAChRs (Homo sapiens, UniProt P36544). In words: biochemical. Type of test: binding.

Compound `c1cnc2cc3c(cc2n1)[C@@H]1CNC[C@H]3C1` [Varenicline] came in with a Ki of 0.29 ± 0.034 µM.
